This is an account of results in patent US10752640B2, “Compounds active towards bromodomains” (NUEVOLUTION A/S, priority 2014, dated 2020).

Molecules are shown by their SMILES. Where only a bound is given, the exact number is not on record here.

The target in this assay is BRD4 protein (Homo sapiens, UniProt O60885). Briefly: FRET assay, half maximal inhibitory concentration (IC50). The conditions noted are these: read-out: Classification (IC50 by FRET assay); BRD4 protein 50 nM, Biotin-H4KAc4 peptide 12.5 nM; List of Classification. On the procedure: The compounds were biologically evaluated by determining the half maximal inhibitory concentration (IC50) by FRET assay. The IC50 is a measure of the effectiveness of a substance in inhibiting a specific biological or biochemical function.
For IC50 determinations, dose-response curves were generated, using a top concentration of 50 μM compound in 12.5% DMSO, followed by 10-fold dilutions in 12.5% DMSO. The composition of the reaction buffer was 50 mM HEPES, pH 7.5; 100 mM NaCl, 0.05% CHAPS.
The reaction was run in a final volume of 25 μl. The BRD4 protein (16.5 μl) was added to wells of 384w white Optiplates (Perkin Elmer) (50 nM final concentration) and 1 μl of compound dilution of DMSO control. Incubation time was 30 minutes at room temperature. In the next step, 2.5 μl Biotin-H4KAc4 peptide (Millipore 13-379) was added to the wells (final concentration was 12.5 nM), and the plates were incubated for 30 minutes at room temperature. […] The plates were incubated for one hour prior to reading on an Envision reader (Perkin Elmer)
Data was analyzed using GraphPad Prism, and IC50 data was obtained using non-linear regression curve fit using log(inhibitor) vs response (variable slope). […]

A word on the IC50: it is the point on the concentration scale where inhibition reaches its midpoint. As for `COc1cc(O)nc2ccc(NC(=O)c3cc(CN4CCN(C)CC4)ccc3N3CCCC3)cc12` [Compound-98, N-(2-hydroxy-4-methoxy-6-quinolyl)-5-[(4-methylpiperazin-1-yl)methyl]-2-pyrrolidin-1-yl-benzamide], the IC50 was less than 0.2 µM.

For the molecule `Cc1cc(O)nc2ccc(NC(=O)c3cnccc3N3CCCC3)cc12` [Compound-124, N-(2-hydroxy-4-methyl-6-quinolyl)-4-pyrrolidin-1-yl-pyridine-3-carboxamide], the IC50 is less than 0.2 µM.
